Amino acid sequences for entries named in this document (tags omitted).
UniProt P08164, whole entry: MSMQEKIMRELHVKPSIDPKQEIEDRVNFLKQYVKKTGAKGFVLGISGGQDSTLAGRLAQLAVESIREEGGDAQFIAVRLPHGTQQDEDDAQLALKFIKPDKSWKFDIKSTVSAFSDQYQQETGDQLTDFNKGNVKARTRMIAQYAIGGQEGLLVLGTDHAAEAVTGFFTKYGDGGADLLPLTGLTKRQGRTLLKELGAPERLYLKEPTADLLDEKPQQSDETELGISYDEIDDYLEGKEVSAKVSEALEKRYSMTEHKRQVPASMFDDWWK

According to patent US6673827B1, “Methods of treating fungal infections with inhibitors of NAD synthetase enzyme” (priority 1999, dated 2004):

Molecular target: NAD synthetase (recombinant protein from B. subtilis; purified) (Bacillus subtilis, UniProt P08164)
Test: NAD synthetase enzyme inhibition assay (coupled enzymatic assay, HTS)
Format: biochemical
Details: table of structures used in the yeast assay (Example 4); tested form: iodide

C[n+]1c2c(cc3ccccc31)C(=O)OCCCCCCCCn1cc-2c2cc(OCc3ccccc3)ccc21
IC50 (μg/mL) for Inhibit. of NAD Synthetase: 66 µg/mL
